The target of test [1] is T1, recombinant human EG5 motor domain (Homo sapiens, UniProt P52732).
T1 construct: recombinant human EG5 motor domain; purchased Cytoskeleton, Inc
T1 sequence (P52732 18-359 limits assumed): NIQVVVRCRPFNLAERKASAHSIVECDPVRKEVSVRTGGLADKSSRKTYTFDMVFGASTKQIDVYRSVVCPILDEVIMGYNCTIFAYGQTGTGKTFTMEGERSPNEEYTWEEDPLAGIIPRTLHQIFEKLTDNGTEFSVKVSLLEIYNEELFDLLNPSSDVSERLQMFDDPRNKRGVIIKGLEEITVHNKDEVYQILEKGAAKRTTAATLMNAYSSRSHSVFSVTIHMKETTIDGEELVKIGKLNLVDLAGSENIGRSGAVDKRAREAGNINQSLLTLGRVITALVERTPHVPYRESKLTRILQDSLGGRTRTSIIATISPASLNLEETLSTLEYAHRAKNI
The experiment in a line: microtubule-activated Eg5 ATPase assay (Cytoskeleton, Inc). The test is classed as biochemical. The note with it: for IC50: microtubule-activated ATPase activity of recombinant human EG5 motor domain; for inhibitory activity in the biochemical assay: Eg5 ATPase assay.

For a further test, the target named is Eg5 (Homo sapiens, UniProt P52732). The note with it: HeLa cells.

Structures are written as SMILES.

The IC50 is the concentration needed to halve the response being measured. With `COc1ccc(C(SC[C@@H](N)CO)(c2ccccc2)c2ccccc2)cc1` [Compound 1.3], the IC50 in test [1] turned out to be 250 nM.

Take `COc1ccc(C(SC[C@H](N)CO)(c2ccccc2)c2ccccc2)cc1` [Compound 1.0, 2-amino-3-[(4-methoxy-phenyl)-diphenyl-methylsulfanyl]-propan-1-ol]: the “Eg5 at the monopole” value at Eg5 (5 μM, 4 hrs) is given as “completely absent”. For the same molecule, at Eg5 (4 hrs, range of inhibitor doses), the “Eg5 on the spindle with increasing inhibitor” value is “progressively lost”. Further, the “Eg5 localization to the monopolar spindle relative to STLC-treated cells” value at Eg5 (equivalent concentrations) is “consistently reduced”. For the same molecule, in test [1], the “inhibitory activity in the biochemical assay” value is “significant enhancement of activity” and the IC50 was determined as 230 nM. For the same molecule, the “inhibitory activity in the biochemical assay” value in test [1] (listed as MSTCO) was “best performing analog”.

For the molecule `N[C@H](CO)CSC(c1ccccc1)(c1ccccc1)c1ccccc1` [Compound 1.1], the IC50 in test [1] turned out to be 270 nM.

The values are drawn from patent US8349899B1 (Arrowhead Center, Inc., priority 2008, dated 2013).
